Test results: PMC6524963

Biological target: mRanBP1 (GST tag cleaved) (mouse) (UniProt P34022)
Test: SEC; RanBP1, RanGTP and CRM1 from yeast or animals mixed at 2:5:1 molar ratio (RanGTP in excess); SDS-PAGE of the peaks

human RanGTP (human Ran^L182A) (from UniProt P62826 1-216) (natural protein)
stoichiometry N: 2.05
